Each structure is given as a SMILES string. Where two headings read alike, the source gives them in different places.

Chains of the proteins cited; added tags and fusions are not shown. Lines headed by an entry give the natural chain unless they say otherwise; changes in a name come on top.
UniProt Q92630: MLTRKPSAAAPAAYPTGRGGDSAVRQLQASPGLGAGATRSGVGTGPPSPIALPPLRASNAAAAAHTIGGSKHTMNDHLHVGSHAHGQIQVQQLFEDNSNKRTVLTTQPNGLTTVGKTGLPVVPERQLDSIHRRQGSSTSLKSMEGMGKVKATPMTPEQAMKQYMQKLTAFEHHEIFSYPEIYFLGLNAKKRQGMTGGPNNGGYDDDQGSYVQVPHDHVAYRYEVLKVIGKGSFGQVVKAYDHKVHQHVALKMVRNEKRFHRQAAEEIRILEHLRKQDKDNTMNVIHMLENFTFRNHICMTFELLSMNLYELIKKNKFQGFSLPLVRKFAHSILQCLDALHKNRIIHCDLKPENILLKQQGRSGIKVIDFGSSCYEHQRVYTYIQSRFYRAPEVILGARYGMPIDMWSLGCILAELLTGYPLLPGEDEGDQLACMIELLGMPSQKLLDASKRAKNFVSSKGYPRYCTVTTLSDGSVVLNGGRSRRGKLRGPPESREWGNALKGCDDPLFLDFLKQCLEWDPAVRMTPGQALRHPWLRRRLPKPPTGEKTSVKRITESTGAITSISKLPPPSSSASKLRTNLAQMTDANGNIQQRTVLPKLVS
UniProt O43781: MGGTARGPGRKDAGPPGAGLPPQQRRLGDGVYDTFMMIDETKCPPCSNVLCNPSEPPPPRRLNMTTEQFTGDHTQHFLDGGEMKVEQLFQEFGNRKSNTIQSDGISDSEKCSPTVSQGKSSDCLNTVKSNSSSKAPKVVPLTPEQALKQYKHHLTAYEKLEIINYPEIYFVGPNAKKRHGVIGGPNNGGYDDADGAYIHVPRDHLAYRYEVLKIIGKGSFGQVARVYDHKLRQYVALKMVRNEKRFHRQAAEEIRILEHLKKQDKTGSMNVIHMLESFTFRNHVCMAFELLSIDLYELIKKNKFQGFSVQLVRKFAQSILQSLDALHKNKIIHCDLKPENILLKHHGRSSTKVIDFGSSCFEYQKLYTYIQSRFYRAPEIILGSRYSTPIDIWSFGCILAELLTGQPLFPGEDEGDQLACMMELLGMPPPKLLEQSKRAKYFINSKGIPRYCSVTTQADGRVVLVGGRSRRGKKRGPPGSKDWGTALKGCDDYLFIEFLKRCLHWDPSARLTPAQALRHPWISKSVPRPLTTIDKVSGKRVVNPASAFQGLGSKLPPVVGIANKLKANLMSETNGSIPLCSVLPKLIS
UniProt Q9NR20: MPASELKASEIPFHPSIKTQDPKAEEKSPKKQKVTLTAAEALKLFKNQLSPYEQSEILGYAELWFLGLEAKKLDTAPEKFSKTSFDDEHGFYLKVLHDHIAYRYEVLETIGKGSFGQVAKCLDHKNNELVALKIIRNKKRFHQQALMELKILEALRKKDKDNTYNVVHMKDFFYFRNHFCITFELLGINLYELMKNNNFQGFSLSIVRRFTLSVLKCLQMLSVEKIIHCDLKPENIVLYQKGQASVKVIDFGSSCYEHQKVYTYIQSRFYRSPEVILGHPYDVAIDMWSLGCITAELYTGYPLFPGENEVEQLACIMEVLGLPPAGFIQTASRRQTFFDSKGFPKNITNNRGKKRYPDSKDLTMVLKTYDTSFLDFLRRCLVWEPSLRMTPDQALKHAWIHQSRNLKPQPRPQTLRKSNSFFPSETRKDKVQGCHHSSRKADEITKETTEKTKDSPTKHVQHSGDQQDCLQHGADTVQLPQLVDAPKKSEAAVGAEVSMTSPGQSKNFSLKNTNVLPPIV

In assay [1] the test system is SW480 colorectal cancer cells. Kind of assay: Gene expression qRT-PCR in SW480 cells. Type of assay: cell-based. As to conditions: Homo sapiens, SW480, 24 h. Background: Quantitative PCR measures a nucleic acid by following its amplification.
The test system of assay [2] is all 50 cell lines. Briefly: CellTiter-Glo Viability Assay, average across all cell lines. It is filed as cell-based. Particulars: Homo sapiens, read-out: average EC50 for inhibition of cancer cell proliferation. For orientation: Cellular ATP, detected with luciferase, serves as a proxy for viable cell number.
In assay [3] the test system is SNU-16. Kind of assay: cells. Particulars: Homo sapiens, SNU-16, 96 h.
The target of assay [4] is DYRK2 (Homo sapiens, UniProt Q92630). Kind of assay: biochemical.
Assay [5] has as its target DYRK3 (Homo sapiens, UniProt O43781). Kind of assay: biochemical.
In assay [6] the target is DYRK4 (Homo sapiens, UniProt Q9NR20). Kind of assay: biochemical.

As to `Cc1ccc([N+](=O)[O-])cc1S(=O)(=O)N(C)/N=C/c1cnc2ccc(Br)cn12` [Compound 26], the fold induction at 3 µM turned out to be 0.02 in assay [1] (read-out: gene expression fold change CLK1); 0.05 in assay [1] (read-out: gene expression fold change CLK2); 0.02 in assay [1] (read-out: gene expression fold change CLK3); 0.06 in assay [1] (read-out: gene expression fold change DVL2); 0.15 in assay [1] (read-out: gene expression fold change LRP5); 0.16 in assay [1] (read-out: gene expression fold change SRSF1). For the same compound, the fold induction at 3 µM in assay [1] (read-out: gene expression fold change SRSF3) stood at 0.04; in assay [1] (read-out: gene expression fold change SRSF4) it was 0.02; in assay [1] (read-out: gene expression fold change SRSF5), 0.09; in assay [1] (read-out: gene expression fold change TCF7) it was 0.37; in assay [1] (read-out: gene expression fold change TCF7L2), 0.09.

By IC50 is commonly meant the concentration that gives 50% inhibition. A lower IC50 goes with greater potency in that assay. As for `CN1CCN(c2cc(C(=O)Nc3cc4cc(-c5cnn(C)c5)ccc4cn3)ccn2)CC1` [Compound 12], the EC50 in assay [2] came out at 257 nM; in assay [3], 109 nM. Moreover, the IC50 in assay [4] is 3 nM; in assay [5] it was 8 nM; in assay [6], 13 nM.

With `CNC(=O)c1ccc(-c2c[nH]c3nc(Nc4ccc(C(=O)NC)cc4OC)nc(OC4CCCC4)c23)cc1` [Compound 10], the EC50 in assay [2] is 332 nM.

These data come from US20220062240A1, “METHODS OF TREATING CANCER USING A CLK INHIBITOR” (BioSplice Therapeutics, Inc., priority 2018, published 2022).
